The record followed here is US20260382728A1, “MODIFIED PROTEINS AND PROTEIN BINDERS AND DEGRADERS” (published 2026).

Amino acid sequences for entries named in this document (tags omitted). Residues count along the entry.
UniProt Q9Y4B6, 1058-1396 limits assumed: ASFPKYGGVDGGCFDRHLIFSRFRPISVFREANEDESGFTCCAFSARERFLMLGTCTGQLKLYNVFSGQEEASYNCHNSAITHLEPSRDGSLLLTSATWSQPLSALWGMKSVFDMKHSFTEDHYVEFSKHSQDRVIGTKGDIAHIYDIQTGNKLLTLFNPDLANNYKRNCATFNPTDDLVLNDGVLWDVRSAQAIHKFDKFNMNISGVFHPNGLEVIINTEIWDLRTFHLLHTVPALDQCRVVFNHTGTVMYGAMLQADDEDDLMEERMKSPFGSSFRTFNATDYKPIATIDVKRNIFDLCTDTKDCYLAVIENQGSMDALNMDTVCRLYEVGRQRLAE
UniProt P11802, whole entry: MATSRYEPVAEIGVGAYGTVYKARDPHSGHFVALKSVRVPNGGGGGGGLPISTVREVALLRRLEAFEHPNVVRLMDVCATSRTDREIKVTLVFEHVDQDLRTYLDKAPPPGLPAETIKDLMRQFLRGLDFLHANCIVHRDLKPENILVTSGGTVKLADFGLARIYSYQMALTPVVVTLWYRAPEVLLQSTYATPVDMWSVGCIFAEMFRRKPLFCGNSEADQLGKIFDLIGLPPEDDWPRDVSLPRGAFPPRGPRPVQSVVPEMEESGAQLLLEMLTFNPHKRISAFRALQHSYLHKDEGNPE

pKd: −log10 of the molar value.

One assay deals with T1, DCAF1 (1058-1396) (Homo sapiens, UniProt Q9Y4B6). As to the kind of experiment: SPR binding to DCAF1 (1058-1396), steady state Kd. The settings on record: 25 °C, steady state affinity model, Table 7.
Compound `OCc1ccc(N2CCC[C@@H](Nc3cc(N4CCOCC4)ncn3)C2)cc1F` showed a pKd below 4.00.
As to `Cc1cnc(N2CCC[C@@H](Nc3cc(N4CCOCC4)ncn3)C2)cn1`, the pKd is 4.30 to 4.60.
`c1ccc(N2CCC3(CCN(c4cc(N5CCOCC5)ncn4)C3)C2)cc1` (stereo not shown) showed a pKd below 4.00.
The same measure, in the same setting: then `c1ccc(N2CC3(CCN(c4cc(N5CCOCC5)ncn4)C3)C2)cc1`, with below 4.00.
Still for that read-out and setting: the same measure for `CNC(=O)c1ccnc(N2CC3(CC(Nc4ccccc4)C3)C2)c1`: below 4.00; for `CNC(=O)c1ccnc(N[C@H]2CC[C@H](Nc3ccccc3)CC2)c1`: below 4.00.
On the same count and under the same terms, then `Fc1cccc(N2CCC[C@@H](Nc3cccc(N4CCOCC4)n3)C2)c1`, with below 4.00; and `c1ccc(N2CCC[C@@H](Nc3cc(N4CCOCC4)ncn3)C2)nc1`, with 4.30 to 4.60.
For `CNC(=O)c1ccnc(N2C[C@@H]3C[C@H]2CN3c2ccccc2)c1`, the pKd is below 4.00.
As for `OCc1ccc(N2CCC[C@@H](Nc3cc(N4CCOCC4)ncn3)C2)cc1`, the pKd was below 4.00.
Same read-out and setting: the same measure for `OCc1ccc(NC2CCN(c3cc(N4CCOCC4)ncn3)C2)nc1` (stereo not shown): below 4.00; for `Fc1cccc(N2CCC[C@@H](Nc3cc(N4CCOCC4)c4nc[nH]c4n3)C2)c1`: below 4.00.
On the same count and under the same terms, the same measure for `C#Cc1ccc(N2CCC[C@@H](Nc3cc(N4CCOCC4)ncn3)C2)nn1`: below 4.00; for `Fc1cccc(N2CCC[C@@H](Nc3cc(N4CCNCC4)ncn3)C2)c1`: below 4.00.
Still for that read-out and setting: the same measure for `Cc1cc(N2CCC[C@@H](Nc3cc(N4CCOCC4)ncn3)C2)ncn1`: below 4.00.
Turning to `Cn1ccnc1NC1CCN(c2cc(N3CCOCC3)ncn2)C1` (stereo not shown), the pKd is below 4.00.
The same measure, in the same setting: then `Cc1cncc(N2CCC[C@@H](Nc3cc(N4CCOCC4)ncn3)C2)n1`, with below 4.00; and `Nc1ccc(N2CCC[C@@H](Nc3cc(N4CCOCC4)ncn3)C2)cc1`, with below 4.00; and `c1ccc(NC2CCN(c3cc(N4CCOCC4)ncn3)C2)cc1` (stereo not shown), with above 4.60.
On the same count and under the same terms, then `c1ccc(N2CC3(CCC3CNc3cc(N4CCOCC4)ncn3)C2)cc1` (stereo not shown), with below 4.00; and `c1ccc(N[C@H]2CCCN(c3cc(N4CCOCC4)ncn3)C2)cc1`, with below 4.00; and `C=CC(=O)N1CCN(c2cc(N3CCC(Nc4ccccc4)C3)ncn2)CC1` (stereo not shown), with below 4.00.
Still for that read-out and setting: the same measure for `c1ccc(N2CCCC3(C2)CN(c2cc(N4CCOCC4)ncn2)C3)cc1`: below 4.00; for `c1ccc(N2CCC23CCN(c2cc(N4CCOCC4)ncn2)CC3)cc1`: below 4.00.
In turn, `Cc1nnc(N2CCC[C@@H](Nc3cc(N4CCOCC4)ncn3)C2)o1` gave a negative logarithm of the Kd (pKd) above 4.60.
`O=C(c1ccc(Cl)c(Cl)c1)N1CCC2(CC1)CN(c1ccccc1)CCO2` had a pKd below 4.00.
Same read-out and setting: then `C#Cc1ccc(N2CCC[C@@H](Nc3cc(N4CCOCC4)ncn3)C2)cc1`, with below 4.00; and `c1ccc(NC2CN(c3cc(N4CCOCC4)ncn3)C2)cc1`, with below 4.00.
On the same count and under the same terms, the same measure for `c1ccc(N2CCC3(CC2)CC(CNc2cc(N4CCOCC4)ncn2)C3)cc1`: below 4.00.
Still for that read-out and setting: then `c1ccc(NCC2CN(c3cc(N4CCOCC4)ncn3)C2)cc1`, with below 4.00; and `CCC(=O)N1CC2(C1)CN(c1cc(N3CCOCC3)ccn1)C2`, with below 4.00.
As to `C#Cc1cccc(N2CCC[C@@H](Nc3cc(N4CCOCC4)ncn3)C2)n1`, the pKd was below 4.00.
For `c1ccc(N[C@H]2CC[C@H](Nc3cc(N4CCOCC4)ncn3)CC2)cc1`, the pKd was 4.30 to 4.60.
Same read-out and setting: the same measure for `Nc1ncnc(N2CCC[C@@H](Nc3cc(N4CCOCC4)ncn3)C2)c1F`: 4.00 to 4.30; for `c1ccc(N2C[C@H]3C[C@@H]2CN3c2cc(N3CCOCC3)ncn2)cc1`: below 4.00.
`CNC(=O)c1ccnc(N2CCC3(CN(c4ccccc4)C3)C2)c1` gave a pKd below 4.00.
Same read-out and setting: then `C#Cc1cc(N2CCC[C@@H](Nc3cc(N4CCOCC4)ncn3)C2)ncn1`, with below 4.00; and `CNC(=O)c1ccnc(N2C[C@H]3C[C@@H](C2)N3c2ccccc2)c1`, with below 4.00; and `Oc1cc(N2CCC[C@@H](Nc3cc(N4CCOCC4)ncn3)C2)ccn1`, with below 4.00.
The same measure, in the same setting: then `c1nc(N[C@@H]2CCCN(C3CCCCC3)C2)cc(N2CCOCC2)n1`, with below 4.00; and `O=C(c1ccc(Cl)c(O)c1)N1CC2(C1)CN(c1ccccc1)C2`, with above 4.60.
Same read-out and setting: then `Cc1ccc(N2CCC[C@@H](Nc3cc(N4CCOCC4)ncn3)C2)nc1`, with below 4.00; and `COc1cnc(N2CCC[C@@H](Nc3cc(N4CCOCC4)ncn3)C2)cn1`, with 4.00 to 4.30.
`c1nc(NC2CCN(C3CCCCC3)CC2)cc(N2CCOCC2)n1`: the pKd was 4.00 to 4.30.
As to `Fc1cccc(N2CCC3C(CNc4cc(N5CCOCC5)ncn4)C3C2)c1` (stereo not shown), the pKd was below 4.00.
On to `c1ccc(N2CCC3C2CCN3c2cc(N3CCOCC3)ncn2)cc1` (stereo not shown), for which the negative logarithm of the Kd (pKd) was below 4.00.
Same read-out and setting: then `CNC(=O)c1cc(N[C@@H]2CCCN(c3cccc(F)c3)C2)ncn1`, with 4.30 to 4.60.

The target of a further assay is T1, DCAF1 (1058-1396). Kind of assay: Covalent binding to DCAF1 by intact mass spectrometry. The following applies: 200 μM compound, 5 μM DCAF1, 8 h, rt.
Consider `C=CC(=O)N1CCC2(CC1)CCN(c1cccc(N3CCN(CC)CC3)n1)C2`, for which the “Covalent binding, Reacted” value is reported as “N”.
On the same count and under the same terms, the same measure for “1-(2-(6-Morpholinopyridin-2-yl)-2,6-diazaspiro[3.4]octan-6-yl)prop-2-en-1-one”: “Y”.
Still for that read-out and setting: then `C=CC(=O)N1CC2(CC(Nc3cc(N4CCOCC4)ncn3)C2)C1`, with “Y”; and `C=CC(=O)N1CC[C@H](Nc2cc(N3CCN(CC)CC3)ncn2)C1`, with “N”.
Same read-out and setting: then `C=CC(=O)NC1CN(c2cccc(N3CCOCC3)n2)C1`, with “Y”; and `C=CC(=O)N1CCC(Nc2cc(N3CCOCC3)ncn2)CC1`, with “Y”; and `C=CC(=O)N1CC2(C1)CN(c1cnnc(N3CCOCC3)c1)C2`, with “Y”.
Regarding `C=CC(=O)NC1CN(c2nc(N3CCOCC3)ns2)C1`, the “Covalent binding, Reacted” value is on record as “Y”.
Still for that read-out and setting: the same measure for `C=CC(=O)N1CCn2nc(Nc3cccc(N4CCN(CC)CC4)n3)cc2C1`: “Y”.
In the case of `C=CC(=O)N1CCC2(CCN(c3cc(N4CCN(CC)CC4)ncn3)CC2)C1`, the “Covalent binding, Reacted” value was “Y”.
Still for that read-out and setting: then `C=CC(=O)N[C@H]1CC[C@H](NC(=O)c2ccc(Cl)c(Cl)c2)CC1`, with “N”.
Same read-out and setting: the same measure for `C=CC(=O)N1CCC2(CCN(c3cc(N4CCN(CC)CC4)c4nc[nH]c4n3)CC2)C1`: “N”; for `C=CC(=O)N1CC(CNc2nccc(N3CCOCC3)n2)C1`: “N”; for `C=CC(=O)NC1CN(c2ccnc(N3CCOCC3)n2)C1`: “Y”.
`C=CC(=O)N1CC[C@H](Nc2cccc(N3CCN(CC)CC3)n2)C1`: the “Covalent binding, Reacted” value is listed as “Y”.
The same measure, in the same setting: then “1-(6-(8-Morpholino-[1,2,4]triazolo[1,5-a]pyridin-6-yl)-2,6-diazaspiro[3.4]octan-2-yl)prop-2-en-1-one”, with “N”; and `C=CC(=O)NCC1CN(c2nnc(N3CCN(CC)CC3)[nH]2)C1`, with “N”.
Still for that read-out and setting: the same measure for `C=CC(=O)N1CC2(C1)CN(c1nccc(N3CCOCC3)n1)C2`: “Y”; for `C=CC(=O)N1CCN(c2cc(N[C@@H]3CCCN(c4cccc(F)c4)C3)ncn2)CC1`: “N”.
In the case of `C=CC(=O)N1CC2(C1)CN(c1cc(N3CCOCC3)cnn1)C2`, the “Covalent binding, Reacted” value is on record as “Y”.
The same measure, in the same setting: then `C=CC(=O)N1CC2(CCN(c3cc(N4CCN(CC)CC4)ncn3)CC2)C1`, with “Y”; and `C=CC(=O)NCC1CN(c2cc(N3CCN(CC)CC3)c3occc3n2)C1`, with “Y”; and `C=CC(=O)NC1CN(c2nsc(N3CCOCC3)n2)C1`, with “Y”.
On the same count and under the same terms, the same measure for `C=CC(=O)N1CCN(c2cccc(N3CCOCC3)n2)CC1`: “Y”; for `C=CC(=O)N1CC2(CC(Nc3cc(N4CCN(CC)CC4)ncn3)C2)C1`: “Y”; for `C=CC(=O)N1CCC2(CC1)CCN(c1cc(N3CCN(CC)CC3)ncn1)C2`: “N”.
Still for that read-out and setting: then `C=CC(=O)N[C@H]1C[C@H](NC(=O)c2ccc(Cl)c(Cl)c2)C1`, with “Y”.
As for `C=CC(=O)N1CC2(C1)CN(c1ccnc(N3CCNCC3)n1)C2`, the “Covalent binding, Reacted” value is listed as “Y”.
For the compound `C=CC(=O)N1CCN(c2n[nH]c(N3CCC4(CCN(c5ccccc5)C4)C3)n2)CC1` (stereo not shown), the “Covalent binding, Reacted” value was “Y”.
On the same count and under the same terms, the same measure for `C=CC(=O)N1CCC2(CC1)CN(c1cccc(N3CCN(CC)CC3)n1)C2`: “Y”.
Still for that read-out and setting: the same measure for `C=CC(=O)N1CC2(C1)CN(c1cc(N3CCOCC3)ccn1)C2`: “Y”; for `C=CC(=O)N1CC2(CCN(c3cc(N4CCOCC4)ncn3)CC2)C1`: “Y”; for `C=CC(=O)N1CCC2(C1)CN(c1nccc(N3CCNCC3)n1)C2`: “N”.
On the same count and under the same terms, the same measure for `C=CC(=O)N1CCC2C1CCN2c1ncnc(N2CCN(CC)CC2)n1` (stereo not shown): “Y”; for `C=CC(=O)N1CCC2(C1)CN(c1cc(N3CCNCC3)ccn1)C2`: “N”.

A further assay has as its target CDK4 (Homo sapiens, UniProt P11802). As to the kind of experiment: CDK4 degradation in MOLT-4 cells (immunoblotting). The settings on record: 1 μM, 8 hours.
For the compound `CC(C)S(=O)(=O)c1ccccc1Nc1nc(Nc2ccc(N3CCN(C(=O)CCOCCOCCOCCOCCN4CCN(c5cc(N[C@@H]6CCCN(c7cccc(F)c7)C6)ncn5)CC4)CC3)cc2)ncc1Cl`, the “% CDK4 Degradation (at 1 μM)” value is “C (20% ≤ C < 40%)”.
The same measure, in the same setting: the same measure for `CC(C)S(=O)(=O)c1ccccc1Nc1nc(Nc2ccc(N3CCN(C(=O)CCCCN4CCN(c5cc(N[C@@H]6CCCN(c7cccc(F)c7)C6)ncn5)CC4)CC3)cc2)ncc1Cl`: “D (D < 20%)”.
Still for that read-out and setting: then `CC(C)S(=O)(=O)c1ccccc1Nc1nc(Nc2ccc(N3CCN(C(=O)CCCN4CCN(c5cc(N[C@@H]6CCCN(c7cccc(F)c7)C6)ncn5)CC4)CC3)cc2)ncc1Cl`, with “C (20% ≤ C < 40%)”.

Staying with this assay, now noted: 10 μM, 8 hours.
On to `CC(C)S(=O)(=O)c1ccccc1Nc1nc(Nc2ccc(N3CCN(C(=O)CCOCCOCCOCCOCCN4CCN(c5cc(N[C@@H]6CCCN(c7cccc(F)c7)C6)ncn5)CC4)CC3)cc2)ncc1Cl`, for which the “% CDK4 degradation (at 10 μM)” value is “B (40% ≤ B < 70%)”.
The same measure, in the same setting: the same measure for `CC(C)S(=O)(=O)c1ccccc1Nc1nc(Nc2ccc(N3CCN(C(=O)CCCCN4CCN(c5cc(N[C@@H]6CCCN(c7cccc(F)c7)C6)ncn5)CC4)CC3)cc2)ncc1Cl`: “C (20% ≤ C < 40%)”; for `CC(C)S(=O)(=O)c1ccccc1Nc1nc(Nc2ccc(N3CCN(C(=O)CCCN4CCN(c5cc(N[C@@H]6CCCN(c7cccc(F)c7)C6)ncn5)CC4)CC3)cc2)ncc1Cl`: “C (20% ≤ C < 40%)”.
